From US10100070B2, “Borate-based base generator, and base-reactive composition comprising such base generator” (FUJIFILM Wako Pure Chemical Corporation, priority 2014, dated 2018)

Test: Solubility tests to organic solvents and a base-reactive compound
Conditions: 0.1 g compound, visual

1,3-dimethyl-2-(N,N′,N″,N″-tetramethylguanidino)-4,5-dihydro-3H-imidazolium triphenyl(n-butyl)borate [Comp. Ex. 10]
Solubility in SR-NPG (neopentylglycol diglycidyl ether added gradually at room temperature): −− (dissolved only into not less than 10 mL thereof)
Solubility in PGMEA (propyleneglycol monomethylether acetate added gradually at room temperature): −− (dissolved only into not less than 10 mL thereof)
